Results published in paper PMC4585259 (Frontiers in Pharmacology, 2015).

Chains of the proteins cited; added tags and fusions are not shown.
UniProt P04775, whole entry: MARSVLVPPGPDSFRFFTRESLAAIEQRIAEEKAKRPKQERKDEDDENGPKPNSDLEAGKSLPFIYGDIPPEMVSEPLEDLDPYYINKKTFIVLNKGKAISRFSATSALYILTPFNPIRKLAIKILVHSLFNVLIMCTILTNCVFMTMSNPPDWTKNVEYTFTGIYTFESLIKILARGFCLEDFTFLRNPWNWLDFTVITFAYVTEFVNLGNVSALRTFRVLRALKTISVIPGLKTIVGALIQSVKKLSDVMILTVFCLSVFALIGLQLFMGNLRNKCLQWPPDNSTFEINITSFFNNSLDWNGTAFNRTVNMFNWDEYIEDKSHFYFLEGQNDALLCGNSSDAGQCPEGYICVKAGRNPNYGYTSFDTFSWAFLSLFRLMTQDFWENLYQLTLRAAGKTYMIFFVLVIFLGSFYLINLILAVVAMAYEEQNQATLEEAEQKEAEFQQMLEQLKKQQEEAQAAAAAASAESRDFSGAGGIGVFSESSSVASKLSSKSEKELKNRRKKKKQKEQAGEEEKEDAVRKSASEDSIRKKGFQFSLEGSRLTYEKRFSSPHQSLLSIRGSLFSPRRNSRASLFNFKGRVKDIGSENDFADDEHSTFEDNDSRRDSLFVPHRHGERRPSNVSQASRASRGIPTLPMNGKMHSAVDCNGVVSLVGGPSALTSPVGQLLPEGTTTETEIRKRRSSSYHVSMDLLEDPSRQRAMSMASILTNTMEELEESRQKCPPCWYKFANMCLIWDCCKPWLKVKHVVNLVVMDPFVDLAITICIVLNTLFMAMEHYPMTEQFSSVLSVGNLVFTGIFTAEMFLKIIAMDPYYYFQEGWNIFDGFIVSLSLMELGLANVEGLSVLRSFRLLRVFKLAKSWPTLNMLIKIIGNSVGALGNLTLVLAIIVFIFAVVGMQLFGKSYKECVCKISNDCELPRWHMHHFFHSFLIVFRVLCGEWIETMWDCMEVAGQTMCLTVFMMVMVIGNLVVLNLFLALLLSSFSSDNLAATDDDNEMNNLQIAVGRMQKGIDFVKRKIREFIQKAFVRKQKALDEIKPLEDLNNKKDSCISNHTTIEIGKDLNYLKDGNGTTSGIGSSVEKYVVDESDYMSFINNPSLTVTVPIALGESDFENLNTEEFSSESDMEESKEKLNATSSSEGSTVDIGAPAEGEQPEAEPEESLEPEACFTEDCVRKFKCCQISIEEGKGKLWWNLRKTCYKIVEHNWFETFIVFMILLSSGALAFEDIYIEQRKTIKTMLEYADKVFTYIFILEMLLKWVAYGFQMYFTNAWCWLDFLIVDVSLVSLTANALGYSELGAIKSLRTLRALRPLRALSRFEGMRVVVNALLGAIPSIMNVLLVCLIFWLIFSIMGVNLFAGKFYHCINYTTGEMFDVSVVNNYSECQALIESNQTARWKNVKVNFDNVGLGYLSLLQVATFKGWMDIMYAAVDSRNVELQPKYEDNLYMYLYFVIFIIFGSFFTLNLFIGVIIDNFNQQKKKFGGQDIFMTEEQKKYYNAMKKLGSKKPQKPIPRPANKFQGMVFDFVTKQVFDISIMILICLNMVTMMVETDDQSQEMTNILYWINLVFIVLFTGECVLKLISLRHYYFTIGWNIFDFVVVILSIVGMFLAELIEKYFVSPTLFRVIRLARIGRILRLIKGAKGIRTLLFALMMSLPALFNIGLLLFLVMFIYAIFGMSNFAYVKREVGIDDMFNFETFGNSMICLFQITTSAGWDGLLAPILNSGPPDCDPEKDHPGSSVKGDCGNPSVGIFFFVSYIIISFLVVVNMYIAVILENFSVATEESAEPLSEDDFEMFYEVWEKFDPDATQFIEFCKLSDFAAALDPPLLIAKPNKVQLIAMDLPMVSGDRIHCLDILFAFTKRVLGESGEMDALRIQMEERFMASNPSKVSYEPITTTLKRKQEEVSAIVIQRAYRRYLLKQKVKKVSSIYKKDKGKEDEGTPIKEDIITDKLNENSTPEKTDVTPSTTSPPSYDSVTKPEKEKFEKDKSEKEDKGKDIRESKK

Biological target: rNav1.2 sodium channels (Rattus norvegicus, UniProt P04775)
Experiment: QPatch automated patch clamp, inhibition of sodium currents evoked by 5 Hz trains at three extracellular pH values
Settings: for τoffset / τonset: concentration (lidocaine 300 μM, memantine 30 μM)

SMILES: Nc1nc2ccc(OC(F)(F)F)cc2s1 [riluzole]
- Kd (Apparent Affinity, pH=6.0, cc 30 mM): 97.9 µM
- Kd (Apparent Affinity, pH=7.3, cc 30 mM): 80.3 µM
- Kd (Apparent Affinity, pH=8.6, cc 30 mM): 68.4 µM
- Kd (apparent affinity, pH 6.0, single concentration (lidocaine 300 μM, memantine 30 μM), geometric mean of 5): 97.9 µM
- Kd (apparent affinity, pH 7.3, single concentration (lidocaine 300 μM, memantine 30 μM), geometric mean of 5): 80.3 µM
- Kd (apparent affinity, pH 8.6, single concentration (lidocaine 300 μM, memantine 30 μM), geometric mean of 5): 68.4 µM

SMILES: CN[C@H]1CC[C@@H](c2ccc(Cl)c(Cl)c2)c2ccccc21 [sertraline]
- class of pH-dependence pattern (cluster analysis) (Ward's method on 18 variables of affinity, reversibility, onset): Class C
- alkalization-induced recovery (neutral-to-alkalic solution exchange, in words): prominent alkalization-induced recovery
- reversibility at all three pH values (pH 6.0, 7.3 and 8.6): below 0.6
- Ratio Reversibility (pH 6.0/7.3, cc 30 mM): 2.494
- Ratio Tau Offset (pH 6.0/7.3, cc 30 mM): 1.158
- Ratio Tau Onset (pH 6.0/7.3, cc 30 mM): 0.915
- log Ratio App Aff (pH 6.0/7.3, cc 30 mM): 0.351
- Ratio Reversibility (pH 6.0/8.6, cc 30 mM): 7.539
- Ratio Tau Offset (pH 6.0/8.6, cc 30 mM): 0.947
- Ratio Tau Onset (pH 6.0/8.6, cc 30 mM): 1.117
- log Ratio App Aff (pH 6.0/8.6, cc 30 mM): 0.920
- τoffset (pH 6.0): 32.20 s
- τonset (pH 6.0): 17.20 s
- Ratio Reversibility (pH 7.3/8.6, cc 30 mM): 3.023
- Ratio Tau Offset (pH 7.3/8.6, cc 30 mM): 0.818
- Ratio Tau Onset (pH 7.3/8.6, cc 30 mM): 1.221
- log Ratio App Aff (pH 7.3/8.6, cc 30 mM): 0.569
- τoffset (pH 7.3): 27.80 s
- τonset (pH 7.3): 18.80 s
- τoffset (pH 8.6): 34.00 s
- τonset (pH 8.6): 15.40 s
- Reversibility (pH=6.0, cc 30 mM): 0.57
- Reversibility (pH=7.3, cc 30 mM): 0.23
- Reversibility (pH=8.6, cc 30 mM): 0.0755
